Protein sequences, listed by entry. Tags and fused reporters are not part of them.
UniProt P35372, whole entry, looked up: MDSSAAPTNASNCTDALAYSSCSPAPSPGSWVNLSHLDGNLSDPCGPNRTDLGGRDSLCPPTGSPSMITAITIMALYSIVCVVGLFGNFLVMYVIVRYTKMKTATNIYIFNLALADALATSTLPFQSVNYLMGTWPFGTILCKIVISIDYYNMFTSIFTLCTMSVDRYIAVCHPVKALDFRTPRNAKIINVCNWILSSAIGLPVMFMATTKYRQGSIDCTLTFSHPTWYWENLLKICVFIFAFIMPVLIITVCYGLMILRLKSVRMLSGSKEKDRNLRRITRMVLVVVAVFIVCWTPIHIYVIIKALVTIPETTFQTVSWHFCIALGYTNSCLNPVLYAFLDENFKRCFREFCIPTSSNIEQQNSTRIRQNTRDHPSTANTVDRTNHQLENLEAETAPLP
UniProt P41143, whole entry, looked up: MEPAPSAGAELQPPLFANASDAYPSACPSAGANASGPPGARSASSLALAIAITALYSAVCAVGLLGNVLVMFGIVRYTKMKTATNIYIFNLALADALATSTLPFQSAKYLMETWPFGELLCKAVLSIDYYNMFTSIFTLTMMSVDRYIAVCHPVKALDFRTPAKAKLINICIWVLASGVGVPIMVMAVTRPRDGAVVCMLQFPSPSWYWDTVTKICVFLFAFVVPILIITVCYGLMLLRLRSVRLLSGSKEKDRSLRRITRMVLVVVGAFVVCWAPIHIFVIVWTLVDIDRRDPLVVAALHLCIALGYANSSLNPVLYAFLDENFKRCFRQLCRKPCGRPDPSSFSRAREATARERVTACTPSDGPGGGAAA

The entries are a selection whose mix differs from that of the whole data set. Activity calls are given as the source filed them. Rule as the data show it: active = inhibition above about 22% (passing the limit was not always enough); inactive = the rest.
These compounds were tested against Mu-type opioid receptor (Homo sapiens) + Delta-type opioid receptor (Homo sapiens) (UniProt P35372+P41143) (assay: OPRM1-OPRD1 heterodimer inverse agonism – cell-based, luminescence, primary screen (AID 504357;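 also: 0% = cells with DMSO and 100% = wells without cells with DMSO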)). Settings: cell-based MOR-DOR heterodimer luminescence, at 9.3 µM, hits give high values.
With `CCOC(=O)c1ccccc1NC(=O)CSc1nc2ccccc2n1CC(=O)N1CCCC1` the inhibition was inactive: 6.5%. In the case of `Cc1ccc(-c2csc(NC(=O)Cn3cnc4c3c(=O)n(C)c(=O)n4C)n2)cc1C`, the inhibition was inactive: 8.28%. `Cc1ccc2c(c1)[C@@H]1CN(C)CC[C@@H]1N2C(=O)Nc1cccc(C(F)(F)F)c1` was tested, and the inhibition was inactive: -18.5%. `O=S(=O)(Nc1ccc2c(c1)nc1n2CCN(Cc2ccccc2)C1)c1ccc(F)cc1` was tested, and the inhibition was inactive: 11.6%. With `CC1Cc2ccccc2N1C(=O)Cn1cnc2ccccc21` (centres undefined) the inhibition was inactive: 4.47%. For `C[C@H](O)[C@@H]1C(=O)N2CCc3ccc(N4CCN(C)CC4)cc3[C@@H]2C[C@@H]1N(C)C(=O)c1ccc(C#N)cc1`, the inhibition was inactive: -3.16%. With `CCN(CC)CCn1c(NC(=O)c2ccc(C(F)(F)F)cc2)nc2ccccc21` the inhibition was inactive: -5.14%. In the case of `Cn1c(=O)c2c(nc(CN3CCOCC3)n2CCN2CCOCC2)n(C)c1=O`, the inhibition was inactive: 0.12%. With `CCN(CC)C(=O)Cn1c(=O)n(Cc2ccccc2Cl)c2c1c(=O)n(C)c(=O)n2C` the inhibition was inactive: 1.44%. In the case of `CCc1cccc(C)c1N(C(=O)Cn1c(=O)[nH]c2ccccc21)C(C)COC` (centres undefined), the inhibition was inactive: -2.49%. `O=C(OC1CN2CCC1CC2)c1cccc([N+](=O)[O-])c1` (centres undefined) was tested, and the inhibition was inactive: 8.82%. In the case of `CCC(C)[C@H](NC(=O)N1CCn2c1nc1ccccc12)C(=O)NCC1CCCO1` (some centres undefined), the inhibition was inactive: 9%. For `CCCCOc1ccccc1NC(=O)Cn1c(-c2nonc2N)nc2ccccc21`, the inhibition was inactive: -22.9%. `CSc1nc(N)nc2c1ncn2CC(=O)N1CCN(Cc2c(C)cc(C)cc2C)CC1` was tested, and the inhibition was inactive: -69.7%. `COc1cccc(CNc2nc3ccccc3n2CCN2CCCCC2)c1OC` was tested, and the inhibition was inactive: -13.5%. In the case of `CCN(CC)C(=O)Cn1cnc2c1c(=O)n(C)c(=O)n2C`, the inhibition was inactive: 9.1%. For `CC(C)N(C(=O)Cn1c(Cl)nc2ccccc21)C(C)C`, the inhibition was inactive: 8.12%. With `CCC(NC(=O)Cn1cnc2c(=O)n(C)c(=O)n(C)c21)c1ccccc1` (centres undefined) the inhibition was inactive: 6.07%. `O=C1Cn2c(nc3ccccc32)-c2ccccc2N1` was tested, and the inhibition was inactive: 1.94%. `COc1ccc(CCNC(=O)[C@H](CC(C)C)NC(=O)N2CCn3c2nc2ccccc23)cc1OC` was tested, and the inhibition was inactive: 2.71%. With `O=C(c1ccccc1Cl)N1CCn2c1nc1ccccc12` the inhibition was inactive: 13%. In the case of `Cc1ccc2c(c1)C1CN(C)CCC1N2C(=O)COc1ccc(S(=O)(=O)N2CCOCC2)cc1` (centres undefined), the inhibition was inactive: 7.2%. For `CCOC(=O)c1ccc(NC(=O)C(C)(CCl)SC)cc1` (centres undefined), the inhibition was inactive: 10.6%. For `O=C(Cn1c(-c2cscn2)nc2ccccc21)Nc1cc(F)ccc1F`, the inhibition was inactive: 8.96%. For `Cc1ccc2c(c1)C1C[N+](C)(CC(=O)c3ccc(Cl)cc3Cl)CCC1N2C(=O)c1ccc(F)cc1` (centres undefined), the inhibition was inactive: 3.28%. In the case of `CN1CCC2(CC1)Nc1nc(SCc3ccc(Cl)cc3)nn1C1=C2CN(C)CC1`, the inhibition was inactive: 10.6%. `Cc1ccc(SCc2nc3ccccc3n2CC(=O)Nc2ccc(Cl)cc2)cc1` was tested, and the inhibition was inactive: -17.6%. With `Cc1cc(N2C(=O)CC(N3CCC(n4c(=O)[nH]c5ccccc54)CC3)C2=O)no1` (centres undefined) the inhibition was inactive: 6.49%. With `CC(C)NC(=O)Cn1c(SCC(=O)N2CCc3ccccc3C2)nc2ccccc21` the inhibition was inactive: -8.03%. For `COc1cc(Cl)c(C)cc1NC(=O)Cn1c(NCCO)nc2ccccc21`, the inhibition was inactive: 13.1%. With `CCOCCn1c(=O)c2c(nc3n2CCN3c2ccc(CC)cc2)n(C)c1=O` the inhibition was inactive: 16.9%. With `N#CCC(=O)N/N=C\c1ccc(OC/C=C/c2ccccc2)cc1` the inhibition was inactive: -11.8%. In the case of `FC(F)(F)c1cccc(-n2nnnc2C2(N3CCOCC3)CCCCC2)c1`, the inhibition was inactive: 8.49%. For `Cc1ccc2c(c1)C1CN(C)CCC1N2C(=S)Nc1cccnc1` (centres undefined), the inhibition was inactive: 7.64%. `CC(C)(C)C(=O)NC(Sc1ncccn1)C(Cl)(Cl)Cl` (centres undefined) was tested, and the inhibition was inactive: 2.09%. In the case of `Cn1c(=O)c2ncn(CC(=O)Nc3cc(C(F)(F)F)ccc3N3CCOCC3)c2n(C)c1=O`, the inhibition was inactive: 12%. For `CCCC(=O)Nc1nnc(/C=C/c2ccccc2)s1`, the inhibition was inactive: 9.29%. `Cn1c(=O)c2c(ncn2CC(=O)Nc2nnc(Cc3ccccc3)s2)n(C)c1=O` was tested, and the inhibition was inactive: 9.27%. With `C[C@H](O)[C@@H]1C(=O)N2CCc3ccc(N4CCOCC4)cc3[C@@H]2C[C@@H]1N(C)C(=O)C(C)(C)C` the inhibition was inactive: -1.83%. With `O=C(NCCn1c(C(F)(F)F)nc2cc(C(F)(F)F)ccc21)[C@H]1CCCN1c1nc(CN2CCCCC2)cs1` the inhibition was inactive: 10.1%. `Cc1cc(C)cc(NC(=O)Cn2c(-c3ccccc3Cl)nc3ccccc32)c1` was tested, and the inhibition was inactive: -3.37%. With `Brc1cccc(CNc2nc3ccccc3n2CCN2CCOCC2)c1` the inhibition was inactive: 3.33%. `Cc1ccc(CNC(=O)CCCCCNC(=O)N2CCn3c2nc2ccccc23)cc1` was tested, and the inhibition was inactive: 5.53%. In the case of `S=C(Nc1ccccc1)N1CCn2c(nc3ccccc32)C1`, the inhibition was inactive: 2.63%. With `Cc1ccc(CSc2nc3ccncc3n2CC(=O)Nc2cc(C)cc(C)c2)cc1` the inhibition was inactive: -36.1%. With `NNC(=O)Cn1c(-c2nonc2N)nc2ccccc21` the inhibition was inactive: -34.4%. `Clc1n[nH]nc1-c1nn[nH][15n]1` was tested, and the inhibition was inactive: 12.7%. For `COc1ccc(/C=N/NC(=O)Cn2c(Cc3ccc(OC)c(OC)c3)nc3ccccc32)cc1OC`, the inhibition was inactive: -11.4%. `COc1ccc(OCC(O)Cn2c(=N)n(CCN3CCOCC3)c3ccccc32)cc1` (centres undefined) was tested, and the inhibition was inactive: -10.9%. With `CN(C)CCn1c(NC(=O)c2ccc(Cl)cc2)nc2ccccc21` the inhibition was inactive: 4.13%. For `O=C(Cn1c(C(F)(F)F)nc2ccccc21)Nc1ccccc1C(=O)O`, the inhibition was inactive: 13%. `COc1ccc(CNC(=O)Cn2cnc3c(SC)nc(N)nc32)cc1` was tested, and the inhibition was inactive: 10.5%. With `CCN(CC)CCn1c(NCc2cccc(OC)c2)nc2ccccc21` the inhibition was inactive: 8.92%. With `O=C(Cn1c(NCCO)nc2ccccc21)NCCc1ccc(F)cc1` the inhibition was inactive: 9.1%. For `CC(NC(=O)Cn1c(NCCO)nc2ccccc21)C1CC2CCC1C2` (centres undefined), the inhibition was inactive: 16.1%. In the case of `Cn1c(=O)c2c(ncn2CC(=O)N2CCN(c3ccc(F)cc3)CC2)n(C)c1=O`, the inhibition was inactive: 13.8%. `O=C(Cn1c(SCc2ccccc2)nc2ccccc21)N1CCOCC1` was tested, and the inhibition was inactive: 13.4%. With `CCCCNC(=O)CC1C(=O)N(Cc2ccccc2)C(C)c2nc3ccccc3n21` (centres undefined) the inhibition was inactive: 9.41%. In the case of `CCOP(=O)(NC(=NC(C)c1ccccc1)NC(C)c1ccccc1)OCC` (centres undefined), the inhibition was inactive: 19.8%. With `CC(C)(C)NC(=O)Cn1c(=O)n(CC(=O)NC(C)(C)C)c2ccccc21` the inhibition was inactive: -4.99%. `Cn1c(=O)c2c(ncn2CC(=O)N2CCCc3ccccc32)n(C)c1=O` was tested, and the inhibition was inactive: 6.75%. For `O=P1(Nc2ccccn2)COc2ccccc2OC1`, the inhibition was inactive: 5.9%. `COc1cccc(CNC(=O)CCCCCNC(=O)N2CCn3c2nc2ccccc23)c1` was tested, and the inhibition was inactive: 9.21%. `CCC1=CC2Cc3nc4ccc(Cl)cc4c(N)c3C(C1)C2` (centres undefined) was tested, and the inhibition was inactive: -18.2%. `O=C(Cn1c(-c2cscn2)nc2ccccc21)Nc1ccc2ccccc2c1` was tested, and the inhibition was inactive: -13.8%. With `CCN1C(=O)CC(N2CCC(Nc3ccc(F)cc3)CC2)C1=O` (centres undefined) the inhibition was inactive: 3.07%. In the case of `CCOP(=O)(Nc1ccc(C)cn1)OCC`, the inhibition was inactive: 11.3%. With `CSc1nc(N)nc2c1ncn2CC(=O)NCCNc1ccc([N+](=O)[O-])cn1` the inhibition was inactive: 14.9%. With `CNC(=O)Cn1c(=O)n(C)c2ccccc21` the inhibition was inactive: 12.2%. `CC1c2nc3ccccc3n2C(CC(=O)NC2CC2)C(=O)N1Cc1ccccc1` (centres undefined) was tested, and the inhibition was inactive: 16.7%. With `CC(C)C[C@H](NC(=O)N1CCn2c1nc1ccccc12)C(=O)N[C@@H](C(=O)O)c1ccccc1` the inhibition was inactive: 11.2%. `CN(C)C1(c2nnnn2CCOC(=O)Nc2ccc(Cl)cc2)CCCCC1` was tested, and the inhibition was inactive: -23.7%. With `CC(C)NC(=O)CSc1nc2ccccc2n1CC(=O)N1CCc2ccccc21` the inhibition was inactive: 5.74%. For `CC(c1ccccc1)N1CCn2c(nc3cc(NC(=O)NC4CCCCC4)ccc32)C1` (centres undefined), the inhibition was inactive: 16.5%. In the case of `Cc1ccc(-c2nc(N(C)C3CCN(C)CC3)c3ccccc3n2)cc1`, the inhibition was inactive: 11.4%. In the case of `CCOc1ccc(C(=O)N2CCn3c2nc2ccccc23)cc1`, the inhibition was inactive: 17.1%. For `CCOC(=O)c1ccc(NC(=O)Cn2cnc3cc(C)c(C)cc32)cc1`, the inhibition was inactive: 7.54%. With `CCOC(=O)Cc1csc(NC(=O)Cn2cnc3c2c(=O)n(C)c(=O)n3C)n1` the inhibition was inactive: 12.4%. For `C[C@H](O)[C@@H]1C(=O)N2CCc3ccc(-c4cccc(F)c4)cc3[C@@H]2C[C@@H]1N(C)C(=O)C(C)(C)C`, the inhibition was inactive: -5.53%. For `CCN(CC)CCn1c(NC(=O)c2ccc(C)cc2)nc2ccccc21`, the inhibition was inactive: -12.6%. In the case of `O=C(Cn1c(COc2ccc(Cl)cc2)nc2ccccc21)NCC(F)(F)F`, the inhibition was inactive: 14.4%. With `Cc1cccc(N2CCN(C(=O)Cn3cnc4c3c(=O)n(C)c(=O)n4C)CC2)c1C` the inhibition was inactive: 11.5%. For `COC(=O)[C@H](CCSC)NC(=O)Cn1cnc2c(OCc3ccccc3)ncnc21`, the inhibition was inactive: 2.37%. With `O=C(Cn1c(CO)nc2ccccc21)NCc1ccc2c(c1)OCO2` the inhibition was inactive: 2.12%. With `CCC(=O)Nc1ccc2c(c1)nc1n2CCN(C2CCCCC2)C1` the inhibition was inactive: -3.37%. In the case of `O=C(Nc1nc2ccccc2n1CCN1CCOCC1)c1ccc(COc2ccccc2Br)o1`, the inhibition was inactive: -4.84%. `CC(C)/C=N\N=C(\N)N[N+](=O)[O-]` was tested, and the inhibition was inactive: -1.3%. In the case of `COc1ccc(CCNC(=O)CCCCCNC(=O)N2CCn3c2nc2ccccc23)cc1OC`, the inhibition was inactive: 18.3%. `CN(C(=O)Cc1ccc(Cl)c(Cl)c1)[C@@H]1CCCC[C@H]1N1CCCC1` was tested, and the inhibition was inactive: -5.38%.

Reference: PubChem BioAssay AID504357 (The Scripps Research Institute Molecular Screening Center, 2011)
